{"sequences": {"note": "Chains of the proteins cited; added tags and fusions are not shown.", "UniProt P35372, whole entry, looked up": "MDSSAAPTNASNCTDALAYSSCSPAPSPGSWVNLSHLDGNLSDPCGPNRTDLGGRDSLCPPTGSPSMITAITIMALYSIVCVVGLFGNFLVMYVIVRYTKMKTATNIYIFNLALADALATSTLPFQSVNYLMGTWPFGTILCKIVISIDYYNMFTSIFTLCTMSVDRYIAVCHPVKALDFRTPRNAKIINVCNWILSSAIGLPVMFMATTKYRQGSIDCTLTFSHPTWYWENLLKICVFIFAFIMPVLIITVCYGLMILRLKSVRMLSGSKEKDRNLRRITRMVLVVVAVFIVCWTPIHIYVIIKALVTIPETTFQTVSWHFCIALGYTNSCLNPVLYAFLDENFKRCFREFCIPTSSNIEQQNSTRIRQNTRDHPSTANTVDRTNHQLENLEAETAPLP", "UniProt P41143, whole entry, looked up": "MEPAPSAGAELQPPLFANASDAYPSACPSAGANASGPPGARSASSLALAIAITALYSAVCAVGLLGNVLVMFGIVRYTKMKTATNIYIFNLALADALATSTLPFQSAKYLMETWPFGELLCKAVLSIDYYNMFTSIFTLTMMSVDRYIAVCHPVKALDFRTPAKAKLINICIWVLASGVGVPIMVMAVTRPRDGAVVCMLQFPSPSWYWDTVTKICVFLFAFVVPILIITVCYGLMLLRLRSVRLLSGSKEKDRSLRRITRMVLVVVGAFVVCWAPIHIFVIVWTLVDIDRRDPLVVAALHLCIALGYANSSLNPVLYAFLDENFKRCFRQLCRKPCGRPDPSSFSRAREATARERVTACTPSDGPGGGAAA"}, "source": "PubChem BioAssay AID504357", "about": "(The Scripps Research Institute Molecular Screening Center, 2011)", "note": "The list shows a part of the results, in another mix than the full data. Active and inactive are the calls of the source. Rule as the data show it: active = inhibition above about 22% (passing the limit was not always enough); inactive = the rest.", "data": [{"molecular_target": "Mu-type opioid receptor (Homo sapiens) + Delta-type opioid receptor (Homo sapiens) (UniProt P35372+P41143)", "assay": "inverse agonists of MOR-DOR heterodimerization, primary screen, cell-based, luminescence (AID 504357);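 also: 0% = cells with DMSO and 100% = wells without cells with DMSO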", "details": "cell-based MOR-DOR heterodimer luminescence, inverse agonism; at 9.3 µM; stronger effect = higher value", "values": [{"compound": "CCN(Cc1ccccc1)C(=O)Cn1cnc2c1c(=O)n(C)c(=O)n2C", "inhibition": "inactive: 11.8%"}, {"compound": "CCN(CC)CCn1c(=N)n(CC(O)COc2ccccc2)c2ccccc21", "note": "(centres undefined)", "inhibition": "inactive: 10.8%"}, {"compound": "Fc1ccc2c(c1)nnn2C1CCN(Cc2c(Cl)cccc2Cl)CC1", "inhibition": "inactive: -18.2%"}, {"compound": "CC(C)[C@H](NC(=O)N1CCn2c1nc1ccccc12)C(=O)NCc1ccco1", "inhibition": "inactive: 13%"}, {"compound": "Cn1c(=O)c2c(nc(CN3CCN(c4ccccc4F)CC3)n2CCN2CCOCC2)n(C)c1=O", "inhibition": "inactive: 6.56%"}, {"compound": "CN(C(=O)Cc1ccccc1)[C@@H]1CC[C@]2(CCCO2)C[C@H]1N1CCCC1", "inhibition": "inactive: 1.31%"}, {"compound": "CCOP1(=S)c2c(C)nn(CCC#N)c2N=C(c2ccc(F)cc2)N1C", "note": "(centres undefined)", "inhibition": "inactive: -0.85%"}, {"compound": "O=C(Nc1ccccc1)N1CCn2c1nc1ccccc12", "inhibition": "inactive: -8.37%"}, {"compound": "N#CCCN(C(=O)COC(=O)C(O)(c1ccccc1)c1ccccc1)c1ccc(F)cc1", "inhibition": "inactive: 7.25%"}, {"compound": "O=C(Cn1cnc2ccccc21)N/N=C/c1ccccc1[N+](=O)[O-]", "inhibition": "inactive: 8.18%"}, {"compound": "O=C(CSc1nc2ccccc2n1CC(=O)N1CCCC1)Nc1nccs1", "inhibition": "inactive: 14.5%"}, {"compound": "CCOC(=O)c1ccc(N2C(=O)CC(N3CCC(Nc4ccc(F)cc4)CC3)C2=O)cc1", "note": "(centres undefined)", "inhibition": "inactive: 9.1%"}, {"compound": "COc1ccc(CNC(=O)[C@H](CCSC)NC(=O)N2CCn3c2nc2ccccc23)cc1", "inhibition": "inactive: 7.69%"}, {"compound": "Cc1ccc2c(c1)C1CN(C)CCC1N2C(=S)NC(=O)c1ccc(Br)cc1", "note": "(centres undefined)", "inhibition": "inactive: 25.3%"}, {"compound": "CCc1cccc(C)c1NC(=O)Cn1c(NCCO)nc2ccccc21", "inhibition": "inactive: 10.3%"}, {"compound": "CN(C(=O)Cc1ccc(Cl)c(Cl)c1)[C@H]1CC[C@@]2(CCCO2)C[C@@H]1N1CCCC1", "inhibition": "inactive: -255%"}, {"compound": "CC(C)CN(C(=O)Cn1c(C(F)(F)F)nc2ccccc21)C1CCS(=O)(=O)C1", "note": "(centres undefined)", "inhibition": "inactive: 4.98%"}, {"compound": "O=[N+]([O-])c1ccc2c(c1)nnn2O", "inhibition": "inactive: 0.1%"}, {"compound": "CC1CCCCN1C(=O)Cn1cnc2c1c(=O)n(C)c(=O)n2C", "note": "(centres undefined)", "inhibition": "inactive: 8.46%"}, {"compound": "CN(C)C(=O)c1cc([N+](=O)[O-])cc2c1-c1c(cc([N+](=O)[O-])cc1[N+](=O)[O-])C2=O", "inhibition": "inactive: -59.1%"}, {"compound": "CCC(C)[C@H](NC(=O)N1CCn2c1nc1ccccc12)C(=O)NCc1ccc(OC)cc1", "note": "(some centres undefined)", "inhibition": "inactive: -13.5%"}, {"compound": "Cn1c(=O)[nH]c(=O)c2c1ncn2CCN1CCOCC1", "inhibition": "inactive: 1.65%"}, {"compound": "CCC(C)NC(=O)Cn1c(COc2ccc(Cl)cc2Cl)nc2ccccc21", "note": "(centres undefined)", "inhibition": "inactive: -11.8%"}, {"compound": "Cc1ccc(C(=O)Nc2nc3ccccc3n2CCN2CCCC2)cc1", "inhibition": "inactive: -17.4%"}, {"compound": "CCN(CC)CCn1c(NCc2ccc(C)o2)nc2ccccc21", "inhibition": "inactive: 8.38%"}, {"compound": "O=C(Nc1nc2ccccc2n1CCN1CCCC1)C1CCCCC1", "inhibition": "inactive: 8.13%"}, {"compound": "Cn1c(=O)c2c(ncn2CC(=O)N(Cc2ccccc2)c2ccccn2)n(C)c1=O", "inhibition": "inactive: 18.8%"}, {"compound": "CCCCNC(=O)Cn1c(=O)n(C)c2ccccc21", "inhibition": "inactive: -1.95%"}, {"compound": "O=C(Cn1cnc2c(NCc3ccccc3)ncnc21)NCCc1cc2ccccc2[nH]1", "inhibition": "inactive: 7.89%"}, {"compound": "NC(=O)Nc1ccc([As](=O)(O)O)cc1", "inhibition": "inactive: 17%"}, {"compound": "O=C(Cn1cnc2ccccc21)N/N=C/c1cccc([N+](=O)[O-])c1", "inhibition": "inactive: -4.88%"}, {"compound": "CC(=O)OCCNC(=O)Cn1cnc2c1c(=O)n(C)c(=O)n2C", "inhibition": "inactive: 14.8%"}, {"compound": "Cc1cccc(C)c1NC(=O)Cn1cnc2c(=O)n(C)c(=O)n(C)c21", "inhibition": "inactive: 8.45%"}, {"compound": "Cc1nc2ccccc2n1C1CC(=O)N(N(C)C)C1=O", "note": "(centres undefined)", "inhibition": "inactive: 18.6%"}, {"compound": "CC(=O)Nc1nc2ccccc2n1CCN1CCOCC1", "inhibition": "inactive: 1.23%"}, {"compound": "CCOC(=O)C1=C(Cn2cnc3ccccc32)NC(=O)NC1c1ccc(OC)cc1", "note": "(centres undefined)", "inhibition": "inactive: 5.62%"}, {"compound": "O=C(CCCCCNC(=O)N1CCn2c1nc1ccccc12)NCc1ccc(Cl)cc1", "inhibition": "inactive: 10.1%"}, {"compound": "CC1Cc2ccccc2N1C(=O)CSc1nc2ccccc2n1CC(=O)N1CCOCC1", "note": "(centres undefined)", "inhibition": "inactive: 3.8%"}, {"compound": "CC(C)NC(=S)N1CCn2c(nc3ccccc32)C1", "inhibition": "inactive: 0.7%"}, {"compound": "Nc1nc2ccccc2n1CCN1CCCC1", "inhibition": "inactive: 10.7%"}, {"compound": "COc1ccc(CC(C)NCC(O)c2ccc(O)c(NC=O)c2)cc1", "note": "(centres undefined)", "inhibition": "inactive: 13.9%"}, {"compound": "FC(F)(F)c1ccc2c(c1)ncn2C1CCN(Cc2nnnn2C2CCCCC2)CC1", "inhibition": "inactive: 1.41%"}, {"compound": "Cc1nn2c3ccccc3n(CCN3CCCCC3)c2nc1=O", "inhibition": "inactive: 11.1%"}, {"compound": "Cc1ccc2c(c1)C1CN(C)CCC1N2S(=O)(=O)c1ccc(C#N)cc1", "note": "(centres undefined)", "inhibition": "inactive: 14.3%"}, {"compound": "O=C(Cn1c(CO)nc2ccccc21)NC1CCCCCC1", "inhibition": "inactive: 14.7%"}, {"compound": "N#CCC(=O)N1CCn2c1nc1ccccc12", "inhibition": "inactive: 12.9%"}, {"compound": "CCN(CC)CCn1c(NCc2cc(OC)ccc2OC)nc2ccccc21", "inhibition": "inactive: 14.9%"}, {"compound": "CCOC(=O)CSc1nc2ccccc2n1CC(=O)NC(C)(C)C", "inhibition": "inactive: 12%"}, {"compound": "COc1ccc(-c2csc(NCCn3c(C)nc4cc(C(F)(F)F)ccc43)n2)cc1", "inhibition": "inactive: 6.05%"}, {"compound": "O=C(Cn1c(-c2cncs2)nc2ccccc21)NC1CCCC1", "inhibition": "inactive: 18.2%"}, {"compound": "CCOC(=O)C1=C(C)N=C2SCCC(=O)N2[C@@H]1/C=C/c1ccccc1", "inhibition": "inactive: -36.9%"}, {"compound": "COC(=O)[C@H](CC(C)C)NC(=O)Cn1cnc2c(OCc3ccccc3)ncnc21", "inhibition": "inactive: 0.43%"}, {"compound": "Cc1cccc(OCC(=O)OC2CN3CCC2CC3)c1", "note": "(centres undefined)", "inhibition": "inactive: 7.88%"}, {"compound": "C=CCOC(=O)C1=C(C)N=C2SCCC(=O)N2C1/C=C/c1ccccc1", "note": "(centres undefined)", "inhibition": "inactive: 5.05%"}, {"compound": "Cn1c(=O)c2c(ncn2CCN(CCO)Cc2ccccc2)n(C)c1=O", "inhibition": "inactive: 9.05%"}, {"compound": "O=[As](O)(c1cccc(O)c1)c1cccc(O)c1", "inhibition": "inactive: 10.3%"}, {"compound": "COc1ccc(CNc2nc3ccccc3n2CCN2CCOCC2)cc1", "inhibition": "inactive: 12.5%"}, {"compound": "CCN(CC)CCn1cnc2c1c(=O)n(CCOC(=O)c1cc(OC)c(OC)c(OC)c1)c(=O)n2C", "inhibition": "inactive: 13%"}, {"compound": "O=C(Cn1cnc2ccccc21)Nc1cccc(S(=O)(=O)N2CCCC2)c1", "inhibition": "inactive: 5.04%"}, {"compound": "O=[N+]([O-])c1ccc2c(c1)nc1n2CCN(C2CCCCC2)C1", "inhibition": "inactive: 7.96%"}, {"compound": "COC(=O)Cn1c(=N)n(CCN2CCCCC2)c2ccccc21", "inhibition": "inactive: 13.5%"}, {"compound": "CC(C)(C)NC(=O)Cn1c(-c2nonc2N)nc2ccccc21", "inhibition": "inactive: 9.8%"}, {"compound": "CCc1ccc(NC(=O)Cn2c3[n+](c4c(F)c(F)ccc42)CCCCC3)cc1", "inhibition": "inactive: 13.8%"}, {"compound": "CC(C(=O)Nc1ccccc1C(=O)O)n1c(C(F)(F)F)nc2ccccc21", "note": "(centres undefined)", "inhibition": "inactive: 10.6%"}, {"compound": "Cn1c(=O)c2ncn(CC(=O)NCCOc3ccccc3)c2n(C)c1=O", "inhibition": "inactive: 13.9%"}, {"compound": "C[C@H](NC(=O)N1CCn2c1nc1ccccc12)C(=O)NCC1CCCO1", "note": "(some centres undefined)", "inhibition": "inactive: 17.4%"}, {"compound": "CCC(=O)Nc1ccc(NC(=S)NC(=O)/C=C/c2ccco2)cc1", "inhibition": "inactive: 11.8%"}, {"compound": "CCN(CC)CCn1cnc2c1c(=O)[nH]c(=O)n2Cc1ccccc1", "inhibition": "inactive: 7.81%"}, {"compound": "Cc1ccc(S(=O)(=O)c2nnn3c2nc(NC2CCN(Cc4ccccc4)CC2)c2ccccc23)cc1C", "inhibition": "inactive: -121%"}, {"compound": "CN1CCC(N(C)c2nc(-c3ccccc3)nc3ccccc23)CC1", "inhibition": "inactive: -41.9%"}, {"compound": "Cn1cccc1/C=N/NC(=O)Cn1cnc2ccccc21", "inhibition": "inactive: 8.24%"}, {"compound": "CN1CCN(C(=O)Cn2c(C(F)(F)F)nc3ccccc32)CC1", "inhibition": "inactive: 1.13%"}, {"compound": "c1ccc(Cn2c(CNc3nc4ccccc4n3CCN3CCCCC3)nc3ccccc32)cc1", "inhibition": "inactive: -41.7%"}, {"compound": "O=C(OC1CN2CCC1CC2)c1ccc(Cl)cc1", "note": "(centres undefined)", "inhibition": "inactive: 7.98%"}, {"compound": "O=C(c1ccccc1)N1CCn2c1nc1ccccc12", "inhibition": "inactive: 10.1%"}, {"compound": "CC(C(=O)N1CCc2ccccc21)n1cnc2c1c(=O)n(C)c(=O)n2C", "note": "(centres undefined)", "inhibition": "inactive: -9.28%"}, {"compound": "C(=N\\c1nc2ccccc2n1CCN1CCOCC1)/c1cccs1", "inhibition": "inactive: 4.94%"}, {"compound": "Cn1c(=O)c2c(ncn2CC(=O)Nc2cccc(S(=O)(=O)Nc3ccccc3F)c2)n(C)c1=O", "inhibition": "inactive: 15.5%"}, {"compound": "CS(=O)(=O)c1ccc(Cl)c(NC(=O)COC(=O)C(O)(c2ccccc2)c2ccccc2)c1", "inhibition": "inactive: 1.67%"}, {"compound": "COCCCNC(=O)Cn1cnc2c(NCc3ccccc3)ncnc21", "inhibition": "inactive: 9.71%"}, {"compound": "Cn1c(=O)c2c(ncn2CC(=O)N2CCCCCC2)n(C)c1=O", "inhibition": "inactive: 7.52%"}, {"compound": "O=C(Cn1cnc2ccccc21)N/N=C/c1cccnc1", "inhibition": "inactive: 14%"}, {"compound": "CN(C)C(=O)Cn1c(=O)n(C)c2ccccc21", "inhibition": "inactive: 3.41%"}, {"compound": "O=[As](O)(O)c1cccnc1", "inhibition": "inactive: 9.39%"}, {"compound": "OCCNc1nc2ccccc2n1CCN1CCCCC1", "inhibition": "inactive: 18%"}, {"compound": "Cc1nc2ccccc2n1CC(=O)NCCN1CCOCC1", "inhibition": "inactive: 8.14%"}, {"compound": "CC(C)C(NS(=O)(=O)c1cccc2nsnc12)C(=O)N1CCn2c1nc1ccccc12", "note": "(centres undefined)", "inhibition": "inactive: 18.2%"}, {"compound": "CCC(C)N(C(=O)Cn1cnc2c1c(=O)n(C)c(=O)n2C)C1CCS(=O)(=O)C1", "note": "(centres undefined)", "inhibition": "inactive: 0.69%"}, {"compound": "Cc1nc2cc(C(F)(F)F)ccc2n1CCNc1nc(-c2ccc([N+](=O)[O-])c(Cl)c2)cs1", "inhibition": "inactive: -26.9%"}, {"compound": "O=C(Nc1ccccc1)N1CCn2c(nc3ccccc32)C1", "inhibition": "inactive: 11.6%"}, {"compound": "O=C(Nc1ccc2c(c1)nc1n2CCN(C2CCCCC2)C1)c1ccco1", "inhibition": "inactive: -6.89%"}, {"compound": "O=C(CSc1nc2ccccc2n1CC(=O)N1CCCC1)Nc1ccc2c(c1)OCO2", "inhibition": "inactive: -6.22%"}, {"compound": "COc1cccc(CNc2nc3ccccc3n2CCN2CCCCC2)c1", "inhibition": "inactive: 0.41%"}, {"compound": "CCOP(=O)(Nc1cccc2ccccc12)OCC", "inhibition": "inactive: -2.43%"}]}]}
